This passage reports Ki results from ChEMBL document CHEMBL5727553.

Amino acid sequences for entries named in this document (tags omitted). Residues count along the entry.
UniProt P54289, 25-956 limits assumed: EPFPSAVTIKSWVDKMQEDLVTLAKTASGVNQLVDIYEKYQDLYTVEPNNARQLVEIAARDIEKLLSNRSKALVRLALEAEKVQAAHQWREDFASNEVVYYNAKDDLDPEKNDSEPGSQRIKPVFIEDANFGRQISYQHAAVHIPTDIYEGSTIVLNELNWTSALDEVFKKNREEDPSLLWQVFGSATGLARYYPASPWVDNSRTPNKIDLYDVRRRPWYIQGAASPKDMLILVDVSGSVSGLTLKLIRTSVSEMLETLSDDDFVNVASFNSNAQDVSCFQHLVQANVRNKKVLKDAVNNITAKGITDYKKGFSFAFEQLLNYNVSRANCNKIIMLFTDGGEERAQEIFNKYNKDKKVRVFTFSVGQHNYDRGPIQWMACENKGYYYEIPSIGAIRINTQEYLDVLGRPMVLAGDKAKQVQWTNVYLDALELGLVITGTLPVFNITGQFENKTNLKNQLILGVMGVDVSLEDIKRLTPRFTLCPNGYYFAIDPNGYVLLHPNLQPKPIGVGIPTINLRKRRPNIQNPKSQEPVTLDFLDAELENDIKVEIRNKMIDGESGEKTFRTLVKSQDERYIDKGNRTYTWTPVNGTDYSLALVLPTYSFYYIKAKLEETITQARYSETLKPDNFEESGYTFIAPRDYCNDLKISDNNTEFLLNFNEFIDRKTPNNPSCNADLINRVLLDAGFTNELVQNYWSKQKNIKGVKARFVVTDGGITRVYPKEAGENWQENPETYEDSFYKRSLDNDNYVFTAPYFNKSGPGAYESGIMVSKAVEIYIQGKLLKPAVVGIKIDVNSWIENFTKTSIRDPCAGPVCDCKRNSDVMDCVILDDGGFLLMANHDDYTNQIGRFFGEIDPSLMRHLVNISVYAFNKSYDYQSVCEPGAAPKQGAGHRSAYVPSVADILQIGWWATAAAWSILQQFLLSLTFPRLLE
UniProt P54289, 957-1103 limits assumed: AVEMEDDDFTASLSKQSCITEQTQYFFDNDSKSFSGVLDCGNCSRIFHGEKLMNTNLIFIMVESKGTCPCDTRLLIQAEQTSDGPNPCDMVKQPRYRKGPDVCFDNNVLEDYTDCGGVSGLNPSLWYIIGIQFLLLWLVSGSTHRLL

Only a part of the results on these compounds is given; other tests are left out. Some results are limits rather than exact numbers.

The assay has as its target Voltage-dependent calcium channel subunit alpha-2/delta-1 (Homo sapiens, UniProt P54289).

As to `O=C(c1cccs1)N(c1cn(-c2ccc(F)cc2)nn1)C1CCN(Cc2ccccc2)CC1`, the inhibitory constant (Ki) is over 5 µM.
